In ChEMBL document CHEMBL1130238, “Synthesis and biological activity of a series of potent fluoromethyl ketone inhibitors of recombinant human calpain I” (J Med Chem, 1997):

Biological target: T1, Calpain-1 catalytic subunit (Homo sapiens) (UniProt P07384)
T1 sequence (whole entry): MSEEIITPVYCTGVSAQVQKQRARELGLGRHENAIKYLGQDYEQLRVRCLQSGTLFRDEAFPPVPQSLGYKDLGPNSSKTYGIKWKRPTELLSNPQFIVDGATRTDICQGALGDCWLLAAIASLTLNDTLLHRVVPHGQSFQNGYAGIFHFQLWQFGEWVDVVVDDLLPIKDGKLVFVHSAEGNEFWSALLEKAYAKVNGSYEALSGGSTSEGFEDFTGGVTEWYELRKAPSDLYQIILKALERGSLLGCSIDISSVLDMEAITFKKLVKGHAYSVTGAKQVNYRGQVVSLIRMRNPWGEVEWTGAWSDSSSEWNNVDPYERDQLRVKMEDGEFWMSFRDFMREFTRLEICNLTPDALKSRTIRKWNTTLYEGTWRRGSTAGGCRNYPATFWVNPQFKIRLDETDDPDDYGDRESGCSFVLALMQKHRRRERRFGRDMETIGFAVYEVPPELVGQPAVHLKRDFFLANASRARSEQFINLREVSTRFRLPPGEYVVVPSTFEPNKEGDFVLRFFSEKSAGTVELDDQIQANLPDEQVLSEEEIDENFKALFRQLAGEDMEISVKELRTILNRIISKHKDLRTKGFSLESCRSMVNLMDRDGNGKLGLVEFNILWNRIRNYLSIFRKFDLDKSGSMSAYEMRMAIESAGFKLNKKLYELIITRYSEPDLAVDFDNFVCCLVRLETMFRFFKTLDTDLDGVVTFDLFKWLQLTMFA
Test: Inhibition of Calpain-I receptor

`CC(C)C[C@H](NC(=O)N1CCc2ccccc2C1)C(=O)NC(Cc1ccccc1)C(=O)CF` (stereo partly specified) showed a K of 276000 M⁻¹ s⁻¹.
